The test deals with ERβ (Homo sapiens, UniProt Q92731). The format is binding.

Amino acid sequences for entries named in this document (tags omitted).
UniProt Q92731, whole entry: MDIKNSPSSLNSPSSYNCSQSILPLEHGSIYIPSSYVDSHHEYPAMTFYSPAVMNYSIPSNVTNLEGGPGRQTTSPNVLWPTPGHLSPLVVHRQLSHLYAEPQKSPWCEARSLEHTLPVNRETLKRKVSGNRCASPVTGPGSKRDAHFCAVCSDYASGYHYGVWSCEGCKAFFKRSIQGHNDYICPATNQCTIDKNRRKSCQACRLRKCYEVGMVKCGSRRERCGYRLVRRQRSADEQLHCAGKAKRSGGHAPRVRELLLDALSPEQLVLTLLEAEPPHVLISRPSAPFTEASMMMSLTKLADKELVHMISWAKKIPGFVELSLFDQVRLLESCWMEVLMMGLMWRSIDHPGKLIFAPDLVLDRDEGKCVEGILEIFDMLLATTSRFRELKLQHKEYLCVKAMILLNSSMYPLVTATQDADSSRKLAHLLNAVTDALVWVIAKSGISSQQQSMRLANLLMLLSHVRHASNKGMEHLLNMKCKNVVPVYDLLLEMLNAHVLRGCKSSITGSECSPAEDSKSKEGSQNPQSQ

The source of these data is paper PMC4242290 (Nuclear Receptor Signaling, 2014).

In the case of `C[C@]12CC[C@@H]3c4ccc(O)cc4CC[C@H]3[C@@H]1CC[C@@H]2O` [E2, estradiol, reference compound], the “Binding to ERβ in FP (competition with fluorescein labeled E2), result in words” value was “binders”.
